Measurements as given in patent publication US8906832B2, “Quantitative analysis of carbohydrate-protein interactions using glycan microarrays: determination of surface and solution dissociation constants” (Academia Sinica, priority 2008, dated 2014).

Target: T1, Con A (Canavalia ensiformis, UniProt P02866)
T1 construct: purchased Sigma
Assay: Competitive binding assay on glycan microarray (solution KD / Ki)
Settings: competition of free oligomannose with the corresponding oligomannose surface

With Man9 the Kd was 130 nM.
